Earlier results on 41 molecules are cited in PubChem BioAssay AID1811.

Experiment in all cases: PubChem AID 1811
In one data set the target is trypsin beta. The conditions noted are these: PDB complex binding affinities from literature; for Kd: Kd when reported; for Ki: Ki when reported.
The target of a further data set is acetylcholinesterase. The conditions noted are these: PDB complex binding affinities from literature; Ki when reported.
A further data set concerns the target arginase 1. As to conditions: PDB complex binding affinities from literature; Ki when reported.
The target of a further data set is glycogen phosphorylase. The conditions noted are these: PDB complex binding affinities from literature; Ki when reported.
The target of the next data set is penicillopepsin. The conditions noted are these: PDB complex binding affinities from literature; Ki when reported.
Data set [1] deals with aspartate aminotransferase. As to conditions: PDB complex binding affinities from literature; Kd when reported.
The target in a further data set is carbonic anhydrase ii. The conditions noted are these: PDB complex binding affinities from literature; for Ki: Ki when reported.
In another data set the target is thymidylate synthase. The conditions noted are these: PDB complex binding affinities from literature; Ki when reported.
The target of data set [2] is nucleoside diphosphate kinase. As to conditions: PDB complex binding affinities from literature; Kd when reported.
Data set [3] has as its target glutamate [nmda] receptor. As to conditions: PDB complex binding affinities from literature; Ki when reported.
A further data set addresses alpha-mannosidase ii. As to conditions: PDB complex binding affinities from literature; for Ki: Ki when reported.
The next data set has as its target thrombin alpha. As to conditions: PDB complex binding affinities from literature; for Ki: Ki when reported.
For another data set, the target named is glycogen phosphorylase b. The conditions noted are these: PDB complex binding affinities from literature; for Ki: Ki when reported.
The target of data set [4] is cell division protein kinase 2. As to conditions: PDB complex binding affinities from literature; IC50 when reported.
A further data set deals with transthyretin. As to conditions: PDB complex binding affinities from literature; Kd when reported.
The target in data set [5] is isopentenyl diphosphate delta-isomerase. The conditions noted are these: PDB complex binding affinities from literature; IC50 when reported.
The target in the next data set is glutamate receptor 2. As to conditions: PDB complex binding affinities from literature; IC50 when reported.
A further data set deals with odorant-binding protein. The conditions noted are these: PDB complex binding affinities from literature; Kd when reported.
The target in the next data set is mta/sah nucleosidase. As to conditions: PDB complex binding affinities from literature; Ki when reported.

For the molecule `CC(=O)N1CCN(C(=O)[C@H](Cc2cccc(C(=N)N)c2)NS(=O)(=O)c2ccc3ccccc3c2)CC1`, the Kd at trypsin beta is 0.04 µM.
As to `CCC1=C[C@@H]2Cc3nc4cc(Cl)ccc4c(N)c3[C@H](C1)C2`, the Ki at acetylcholinesterase is 0.00013 µM.
On to `NC(=NCCC[C@H](N)C(=O)O)NO`, for which the Ki at arginase 1 was 10 µM.
In the case of `CC(=O)NC(=O)N[C@@H]1O[C@H](CO)[C@@H](O)[C@H](O)[C@H]1O`, on glycogen phosphorylase, the Ki is 370 µM.
With `COC(=O)[C@H](Cc1ccccc1)OP(=O)(O)[C@H](CC(C)C)NC(=O)[C@H](C)NC(=O)[C@H](C)NC(=O)OCc1ccccc1`, at penicillopepsin, the Ki was 1.6 µM.
On to `O=C(O)CCC(=O)O`, for which the Kd in data set [1] was 2400 µM.
With `NS(=O)(=O)C(F)(F)F`, at carbonic anhydrase ii, the Ki was 0.002 µM.
`Nc1nc2[nH]cc(CCc3ccc(C(=O)N[C@@H](CCC(=O)O)C(=O)O)cc3)c2c(=O)[nH]1`: the Ki at thymidylate synthase is 0.109 µM.
Consider `Nc1ncnc2c1ncn2[C@@H]1O[C@H](COP(=O)(O)OS(=O)(=O)O)[C@@H](OP(=O)(O)O)[C@H]1O`, for which, in [2], the Kd was 14 µM.
With `NC1(C(=O)O)CCC1`, in [3], the Ki is 831 µM.
Turning to `OC[C@]1(F)OC[C@@H](O)[C@@H](O)[C@@H]1O`, on alpha-mannosidase ii, the Ki is 600 µM.
As to `NC(CO)(CO)CO`, at carbonic anhydrase ii, the Ki was 12 µM.
Take `O=C1N[C@@H]2[C@@H](O)[C@@H](O)[C@H](O)[C@@H](CO)N2C1=O`: the inhibition constant Ki at alpha-mannosidase ii was 5200 µM.
On to `N=C(N)c1ccc(/C=C2/CCCC/C(=C/c3ccc(C(=N)N)cc3)C2=O)cc1`, for which the Ki on trypsin beta was 1.25 µM.
Regarding `O[C@H]1[C@H]2[C@H](O)CCCN2C[C@H]1O`, the IC50 at alpha-mannosidase ii (IC50 when reported) is 0.02 µM.
Consider `Nc1ccc2cc3ccc(N)cc3nc2c1`, for which the Kd at thrombin alpha (Kd when reported) is 530 µM.
As for `O=P(O)(O)OC[C@H]1O[C@H](O)[C@H](O)[C@@H](O)[C@@H]1O`, the Kd at glycogen phosphorylase b (Kd when reported) is 20 µM.
`CNS(=O)(=O)c1ccc(N=Cc2c(O)[nH]c3ccccc23)cc1`: the IC50 in data set [4] was 0.56 µM.
As to `FC(F)(CNc1nccc2oc(Cc3ccccc3-n3cncn3)nc12)[C@H]1CCCCN1`, the Ki on thrombin alpha was 4.6 µM.
`COC(=O)N[C@]1(C(N)=O)O[C@H](CO)[C@@H](O)[C@H](O)[C@H]1O`: the Ki at glycogen phosphorylase b was 15.6 µM.
Regarding `N=C(N)c1cccc(C[C@H](NS(=O)(=O)c2ccc3ccccc3c2)C(=O)N2CCCC[C@@H]2C(=O)O)c1`, the Kd on trypsin beta is 0.264 µM.
As to `NCc1ccccc1`, the Ki at trypsin beta was 1580 µM.
Take `Oc1c(Br)cc(Br)cc1Br`: at transthyretin, the Kd is 0.023 µM.
Turning to `NC1(C(=O)O)CCCC1`, the Ki in [3] was 15300 µM.
For the molecule `CC(C)[C@H](N)C(=O)O`, on arginase 1, the Ki was 3600 µM.
For the molecule `O=C1NC(=O)[C@@]2(N1)O[C@H](CO)[C@@H](O)[C@H](O)[C@H]2O`, the Ki at glycogen phosphorylase b was 3 µM.
Consider `CC1=C[C@H]2Cc3[nH]c(=O)ccc3[C@]3(C1)NCCC[C@H]23`, for which, on acetylcholinesterase, the Ki is 0.334 µM.
Regarding `O=C(O)CCNC(=O)[C@H]1CCCN1S(=O)(=O)c1ccc(C(=O)N[C@@H](CCC(=O)O)C(=O)O)cc1`, the Ki on thymidylate synthase is 0.33 µM.
On to `C/C(=C\COP(=O)(O)OP(=O)(O)O)CO`, for which the IC50 in data set [5] was 50 µM.
Turning to `Cc1nc2ccc3ccc(CNc4ccc5c(c4)CN([C@@H](CCC(=O)O)C(=O)O)C5=O)cc3c2c(=O)[nH]1`, at thymidylate synthase, the Ki was 0.016 µM.
As to `N[C@@H]1CONC1=O`, the inhibitory constant (Ki) in [3] was 241 µM.
For the molecule `N[C@@H](Cc1ccccc1)C(=O)NCCOCCOCCNC(=O)c1ccc(S(N)(=O)=O)cc1`, the Kd at carbonic anhydrase ii (Kd when reported) was 0.014 µM.
For `CC(C)(C)c1o[nH]c(=O)c1C[C@H](N)C(=O)O`, at glutamate receptor 2, the IC50 is 3.5 µM.
With `NC1(C(=O)O)CC1`, the Ki in data set [3] was 4.8 µM.
In the case of `CCCCC[C@H](O)CC`, the Kd at odorant-binding protein is 3.3 µM.
In the case of `CNC(=O)C(F)(F)[C@H](O)[C@H](CC(C)C)NC(=O)[C@@H](NC(=O)[C@@H](NC(=O)CC(C)C)C(C)C)C(C)C`, the Ki on penicillopepsin was 0.01 µM.
`CSC[C@H]1CN(Cc2c[nH]c3c(N)ncnc23)C[C@@H]1O`: the Ki on mta/sah nucleosidase is 2 pM.
Consider `Cc1cc(NS(=O)(=O)c2ccccc2)cc(OCCNc2ccncc2)c1`, for which the Ki at thrombin alpha is 0.023 µM.
Take `CNS(=O)(=O)Cc1ccc(N=Nc2c(O)[nH]c3ccc4ncsc4c23)cc1`: in [4], the IC50 was 0.0057 µM.
On to `N=C(N)N1CCC[C@H](C(=O)NC[C@@H]2CCCN2C(=O)[C@H](CO)NS(=O)(=O)c2ccc3ccccc3c2)C1`, for which the Ki on thrombin alpha is 0.0036 µM.
As for `O=C(O)c1ccccc1Nc1cccc(C(F)(F)F)c1`, the Kd at transthyretin is 0.03 µM.
